BindingDB's records for doi:10.1021/acsmedchemlett.1c00450 (The Genomics Institute of The Novartis Research Foundation, 2021)

Assay: Inhibition of KIF5B-RET fusion protein (unknown origin) expressed in mouse BaF3 cells assessed as reduction in cell proliferation incubated for 48 hrs by cell proliferation assay

IC50: 0.02 µM
Compound: COC(=O)NC12CCC(n3cc(-c4ccc(Cl)c(N)c4)c4c(N)ncnc43)(CC1)CC2
